{"source": "PubChem BioAssay AID2283688", "about": "(EPA ToxCast)", "read-out": "xenobiotic metabolism (CYP2C9), CYP2C9 (gene 1559)", "assay": "CLD_CYP2C9_24hr: CellzDirect (CLD) Gene Expression Assay for xenobiotic metabolism (CYP1A2) at 24 hours", "experimental": "CLD_24hr is a cell-based, multiplexed-readout assay that uses hepatocyte, a human liver primary cell, with measurements taken at 24 hours after chemical dosing in a 96-well plate.CLD_CYP2C9_24hr is one of 16 assay component(s) measured or calculated from the CLD_24hr assay. It is designed to make measurements of mRNA induction, a form of inducible reporter, as detected with chemiluminescence signals by Quantitative Nuclease Protection Assay (qNPA) technology.Data from the assay component CLD_CYP2C9_24hr was analyzed at the endpoint, CLD_CYP2C9_24hr, in the positive analysis fitting direction relative to DMSO as the negative control and baseline of activity. […] Furthermore, this assay endpoint can be referred to as a primary readout. […]\nHuman hepatocyte cultures were treated daily for two consecutive days with fresh dosing solutions containing appropriate concentrations of the 320 ToxCast chemicals (chemical identities were blinded to CellzDirect and other ToxCast collaborators), vehicle control (0.2% DMSO), and positive control inducers as summarized in Table 1. […] Cultures for each treatment group (i.e., media, vehicle [0.2% DMSO], positive control inducers [multiple concentrations], and the ToxCast chemicals [multiple concentrations]) were observed and cell morphology was assessed relative to vehicle control cultures at each harvest time point (0, 6, 24, or 48 h). […]", "note": "The list shows a part of the results, in another mix than the full data. Records with an inconclusive call do not appear. The source made the active and inactive calls. Rule for the calls: active = hit-call score of the fitted dose curve at least 0.9, where 1 is the maximum; inconclusive = response in the unintended direction; inactive = score below 0.9."}
{"smiles": "CC(C)OP(=S)(OC(C)C)SCCNS(=O)(=O)c1ccccc1", "values": [{"measurement": "outcome", "value": "inactive"}]}
